For this experiment, the system named is SARS-CoV-2 wild type or original Wuhan strain.

Where a name gives a salt, the structure may show the parent alone.

As to `COc1cccc(-c2ccc(NC(=O)C3=C(C(=O)O)CCC3)c(F)c2)c1` [IMU-838, 1-cyclopentene-1-carboxylic acid, 2-(((3-fluoro-3′-methoxy(1,1′-biphenyl)-4-yl)amino)carbonyl)-, calcium salt (2:1)], the “reduction of infectivity (CCID50)” value was approximately 2 log units.
